For assay [1], the target named is T1, GLS1 (Homo sapiens, UniProt O94925). Put plainly: GLS1 enzymatic assay (three-stage coupled endpoint assay: GLS1/GDH/diaphorase, resorufin fluorescence). Particulars: read-out: Enzyme IC50.
Assay [2] addresses T1, GLS1. As to the kind of experiment: GLS1 cell assay: intracellular glutamate level in A549 cells (Glutamine/Glutamate-Glo). The settings on record: read-out: Cell IC50, 2 h compound pre-incubation, then 24 h with L-Gln.

Protein sequences, listed by entry. Tags and fused reporters are not part of them. Residues count along the entry.
UniProt O94925, 55-669 limits assumed: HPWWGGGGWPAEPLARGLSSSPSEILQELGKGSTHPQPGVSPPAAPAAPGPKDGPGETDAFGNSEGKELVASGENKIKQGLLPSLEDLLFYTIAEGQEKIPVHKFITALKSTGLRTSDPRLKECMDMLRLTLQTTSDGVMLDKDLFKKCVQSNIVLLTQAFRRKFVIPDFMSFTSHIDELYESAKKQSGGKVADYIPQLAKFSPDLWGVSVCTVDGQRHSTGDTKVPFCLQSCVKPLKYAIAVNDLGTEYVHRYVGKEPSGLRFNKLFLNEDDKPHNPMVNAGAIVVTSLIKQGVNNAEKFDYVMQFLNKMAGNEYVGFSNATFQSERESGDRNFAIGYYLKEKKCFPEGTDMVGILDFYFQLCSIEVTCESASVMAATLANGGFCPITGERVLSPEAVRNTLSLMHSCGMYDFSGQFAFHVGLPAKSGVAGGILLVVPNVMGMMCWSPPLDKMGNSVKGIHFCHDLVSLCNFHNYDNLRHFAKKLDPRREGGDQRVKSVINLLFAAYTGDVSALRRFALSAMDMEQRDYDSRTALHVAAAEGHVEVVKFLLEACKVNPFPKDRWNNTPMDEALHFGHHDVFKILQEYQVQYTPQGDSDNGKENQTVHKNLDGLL
UniProt O94925, 73-669 limits assumed: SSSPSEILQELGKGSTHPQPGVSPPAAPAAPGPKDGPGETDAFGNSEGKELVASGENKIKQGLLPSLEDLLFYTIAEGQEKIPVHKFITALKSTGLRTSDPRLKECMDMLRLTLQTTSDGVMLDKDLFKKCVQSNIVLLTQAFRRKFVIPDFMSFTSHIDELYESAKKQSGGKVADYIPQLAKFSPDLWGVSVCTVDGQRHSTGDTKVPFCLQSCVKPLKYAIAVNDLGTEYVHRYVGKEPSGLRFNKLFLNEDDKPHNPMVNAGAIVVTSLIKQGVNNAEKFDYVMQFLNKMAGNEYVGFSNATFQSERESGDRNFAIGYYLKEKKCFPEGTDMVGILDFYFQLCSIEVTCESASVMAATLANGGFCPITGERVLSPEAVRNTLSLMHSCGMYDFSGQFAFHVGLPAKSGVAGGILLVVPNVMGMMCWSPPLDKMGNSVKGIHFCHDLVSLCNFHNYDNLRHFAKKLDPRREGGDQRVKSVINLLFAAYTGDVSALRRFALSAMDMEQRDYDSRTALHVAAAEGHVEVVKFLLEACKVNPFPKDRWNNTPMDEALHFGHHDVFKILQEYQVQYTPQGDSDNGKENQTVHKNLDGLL

Structures are written as SMILES.

By IC50 is commonly meant the concentration at which inhibition is half-maximal. As for `CC(C)(C)[C@H]1CC[C@@H](N2CCOC(CC(=O)Nc3nnc(N[C@@H]4CCN(c5cccnn5)C4)s3)C2)CC1` (stereo partly drawn), the figures for the IC50 at GLS1 [1] and at GLS1 [2] were 30.8 nM and 1.7 nM, respectively.

For the compound `O=C(CC1CN(C2CCC3(CC2)CC3)CCC1(F)F)Nc1nnc(N[C@@H]2CCN(c3cccnn3)C2)s1` (stereo partly drawn), the IC50 was found to be 24.6 nM at GLS1 [1] and 1.7 nM at GLS1 [2].

Turning to `CN1CCN(CC2CCC(C)(C)CC2)C[C@H]1CC(=O)Nc1nnc(N[C@@H]2CCN(c3cccnn3)C2)s1` (single isomer, unassigned) [Example 279], the IC50 on GLS1 [1] amounted to 31.2 nM; at GLS1 [2] it was 14.6 nM.

In the case of `O=C(CSC1CCN(Cc2cccc(OC(F)(F)F)c2)CC1)Nc1nnc(N[C@@H]2CCN(c3cccnn3)C2)s1`, the IC50 was found to be 85.3 nM on GLS1 [1] and 0.8 nM at GLS1 [2].

Consider `Cc1c(F)cc(F)cc1CN1CCC[C@@H](CC(=O)Nc2nnc(N[C@@H]3CCN(c4cccnn4)C3)s2)C1`, for which the IC50 at GLS1 [1] was found to be 92.2 nM; at GLS1 [2], 1.8 nM.

`Cc1cc(OC(F)(F)F)ccc1CN1CCC(CC(=O)Nc2nnc(N[C@@H]3CCN(c4cccnn4)C3)s2)CC1`: the IC50 on GLS1 [1] was 65.9 nM; at GLS1 [2], 5.4 nM.

As to `CSc1ccccc1CN1CC2(CCCN(CC(=O)Nc3nnc(N[C@@H]4CCN(c5cccnn5)C4)s3)C2)C1`, the IC50 on GLS1 [1] came out at 17 nM; on GLS1 [2], 3 nM.

In the case of `CC1(C)CCC(N2CCO[C@@H](CC(=O)Nc3nnc(N[C@@H]4CCN(c5ccc(Cl)nn5)C4)s3)C2)CC1` (single isomer, unassigned) [Example 282], the figures for the IC50 on GLS1 [1] and on GLS1 [2] were 100 nM and 36.3 nM, respectively.

For the compound `CC(C)(C)c1cc(CN2CCC(SCC(=O)Nc3nnc(N[C@@H]4CCN(c5cccnn5)C4)s3)CC2)on1`, the IC50 was 12.7 nM at GLS1 [1] and 2.8 nM at GLS1 [2].

As to `O=C(CN1CCCN(Cc2ccc(OC(F)(F)F)cc2)CC1)Nc1nnc(N[C@@H]2CCN(c3cccnn3)C2)s1`, the IC50 on GLS1 [1] worked out at 58.5 nM; on GLS1 [2], 3.9 nM.

Take `O=C(CC1CCN(Cc2ccc(OC(F)(F)F)cc2)CC1)Nc1nnc(N[C@@H]2CCN(c3cccnn3)C2)s1`: the IC50 on GLS1 [1] turned out to be 40.1 nM; on GLS1 [2], 5.5 nM.

In the case of `CC(C)(C)OC(=O)N1CCC(CN2CCC[C@@H](CC(=O)Nc3nnc(N[C@@H]4CCN(c5ccc(Cl)nn5)C4)s3)C2)CC1`, the IC50 on GLS1 [1] stood at 112 nM; on GLS1 [2], 152 nM.

On to `CCC(C(=O)Nc1nnc(N[C@@H]2CCN(c3cccnn3)C2)s1)C1CCN(Cc2ccccc2OC(C)C)CC1` (stereo partly drawn), for which the IC50 was 69.6 nM at GLS1 [1] and 130 nM at GLS1 [2].

Turning to `COc1c(C)cc(CN2CCC(CC(=O)Nc3nnc(N[C@@H]4CCN(c5cccnn5)C4)s3)CC2)cc1C`, the IC50 is 55 nM on GLS1 [1] and 70.2 nM at GLS1 [2].

Consider `O=C(CCN1CCC(Sc2cc(F)cc(F)c2)CC1)Nc1nnc(N[C@@H]2CCN(c3cccnn3)C2)s1`, for which the results for the IC50 at GLS1 [1] and at GLS1 [2] were 24.6 nM and 9.1 nM, respectively.

`Cc1ccccc1CN1CCSC(CC(=O)Nc2nnc(N[C@@H]3CCN(c4cccnn4)C3)s2)C1` (stereo partly drawn): the figures for the IC50 on GLS1 [1] and at GLS1 [2] were 18.8 nM and 5.6 nM, respectively.

Consider `O=C(CC1CC2(CCN(Cc3cccc(OC(F)F)c3)C2)C1)Nc1nnc(N[C@@H]2CCN(c3cccnn3)C2)s1` (stereo partly drawn), for which the IC50 is 38.8 nM at GLS1 [1] and 36.7 nM at GLS1 [2].

In the case of `Cc1ccc([C@H](C)N2CCC[C@@H](CC(=O)Nc3nnc(N[C@@H]4CCN(c5cccnn5)C4)s3)C2)cc1F` (single isomer, unassigned) [Example 261], the figures for the IC50 on GLS1 [1] and at GLS1 [2] were 18.8 nM and 6.3 nM, respectively.

As to `O=C(CC1CN(Cc2cncc(C(F)(F)F)c2)CC2(CC2)C1)Nc1nnc(N[C@@H]2CCN(c3cccnn3)C2)s1` (stereo partly drawn), the IC50 on GLS1 [1] was 50.4 nM; on GLS1 [2] it was 19.8 nM.

As for `CCc1ccc(CN2CCC[C@@H](CC(=O)Nc3nnc(N[C@@H]4CCN(c5cccnn5)C4)s3)C2)cc1F`, the results for the IC50 at GLS1 [1] and at GLS1 [2] were 18.9 nM and 5.3 nM, respectively.

Turning to `COC(C(=O)Nc1nnc(N[C@@H]2CCN(c3cccnn3)C2)s1)C1CCN(Cc2ccccc2OC2CCC2)CC1` (stereo partly drawn), the IC50 turned out to be 89.6 nM at GLS1 [1] and 16.7 nM at GLS1 [2].

(Values after patent publication US20260384443A1, “THIADIAZOLES AS GLUTAMINASE I INHIBITORS” (published 2026).)
